Consider 1 compound from BindingDB's records for 7799399.

By UniProt entry, the sequences of proteins in these tests, tags left out.
UniProt P41143, whole entry, looked up: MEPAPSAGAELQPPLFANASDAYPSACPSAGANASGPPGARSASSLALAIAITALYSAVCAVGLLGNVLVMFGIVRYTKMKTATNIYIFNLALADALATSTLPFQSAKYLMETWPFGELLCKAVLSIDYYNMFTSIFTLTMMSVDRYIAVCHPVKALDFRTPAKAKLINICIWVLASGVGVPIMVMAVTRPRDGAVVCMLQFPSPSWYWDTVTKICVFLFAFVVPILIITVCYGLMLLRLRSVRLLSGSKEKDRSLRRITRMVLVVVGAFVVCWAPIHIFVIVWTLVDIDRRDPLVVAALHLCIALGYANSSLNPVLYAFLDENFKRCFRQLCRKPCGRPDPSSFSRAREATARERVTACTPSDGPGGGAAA

The assay concerns the target Delta-type opioid receptor (Homo sapiens, UniProt P41143). The experiment in a line: Binding affinity for delta opioid receptor in guinea pig brain membranes; using 2 nM [3H]DPDPE as radioligand.

The compound `CN(C(=O)Cc1ccc(Cl)c(Cl)c1)[C@H](CN1CCCC1)c1cccc(N)c1` gave an IC50 of 0.089 µM.

Usually IC50 stands for the concentration needed to halve the response being measured.
